Results published in patent US8258130B2 (Sanofi, priority 2007, dated 2012).

Amino acid sequences for entries named in this document (tags omitted).
UniProt O60760, whole entry: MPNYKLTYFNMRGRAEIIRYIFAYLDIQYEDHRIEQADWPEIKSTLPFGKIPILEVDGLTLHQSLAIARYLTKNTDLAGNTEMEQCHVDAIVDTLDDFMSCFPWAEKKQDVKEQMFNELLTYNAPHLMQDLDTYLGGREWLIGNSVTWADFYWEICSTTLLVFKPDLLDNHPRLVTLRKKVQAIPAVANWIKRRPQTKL

Molecular target: human h-PGDS (Homo sapiens, UniProt O60760)
Assay: Enzyme Immunoassay (EIA) method, inhibition of hematopoietic PGD2 synthase
Conditions: EIA assay, PGD2 formed from PGH2 by human h-PGDS
Procedure: Assay 2: Enzyme Immunoassay (EIA) Method
• a. Preparation of 0.1M K2HPO4/KH2PO4 buffer (pH 7.4) • Prepare 0.1 M KH2PO4 from 1M KH2PO4 (Sigma, Cat# P-8709) • Prepare 0.1 M K2HPO4 from powder of K2HPO4 (Fisher, BP363-500) • Mix 0.1 M K2HPO4 with 0.1 M KH2PO4 to adjust pH to 7.4. • b. Preparation of 0.5% γ-globulin • Add 0.1 g of γ-globulin (Sigma, Cat# G-5009) to 20 mL 0.1 M K2HPO4/KH2PO4 buffer (pH 7.4) and make 1-mL/vial aliquots and store in −80° C. • c. Preparation of 100 mM GSH • Add 307 mg of GSH (Sigma, Cat# G-6529) to 10 mL 0.1 M K2HPO4/KH2PO4 buffer (pH 7.4) and store at −80° C. • d. Preparation of Reaction buffer: • 198 mL of 0.1M K2HPO4/KH2PO4 buffer (pH 7.4) • 2 mM GSH—Prepared from 100 mM GSH • 0.4 g Glycerol • 2 mL of 0.5% γ-globulin • Add 0.4 g of glycerol and 2 mL of 0.5% γ-globulin to 198 mL of 0.1 M K2HPO4/KH2PO4 • buffer (pH7.4). • Add 0.4 mL of 100 mM GSH to 19.6 mL reaction buffer before the assay (enough for two 96-well plates). • e. […]
• 2. […] Total PGD2 levels (pg/mL) were determined in the samples by EIA kits (Caymen Chemical, Catalog No. 500151) Calculate Amount of PGD2 as Below • Calculated % Positive control according to the equation below; % Positive control=(Compound value−Negative control)/(Positive value−Negative control value)×100. […]

IC50: 100 nM
Structure (SMILES): CN(NC(=O)c1cnc(-c2ccccc2)nc1)c1ccc(C(F)(F)F)cn1
